Literature values, collected in publication PMC11346437.

Sequences of proteins named here, by UniProt entry; tags and fusion partners are left off.
UniProt Q07817, whole entry: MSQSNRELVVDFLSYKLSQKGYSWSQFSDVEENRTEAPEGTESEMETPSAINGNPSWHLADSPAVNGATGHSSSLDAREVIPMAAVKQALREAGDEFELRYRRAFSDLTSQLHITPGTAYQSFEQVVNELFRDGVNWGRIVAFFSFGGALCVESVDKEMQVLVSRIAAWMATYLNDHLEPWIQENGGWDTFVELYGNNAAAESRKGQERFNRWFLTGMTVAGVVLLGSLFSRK
UniProt Q07812, whole entry: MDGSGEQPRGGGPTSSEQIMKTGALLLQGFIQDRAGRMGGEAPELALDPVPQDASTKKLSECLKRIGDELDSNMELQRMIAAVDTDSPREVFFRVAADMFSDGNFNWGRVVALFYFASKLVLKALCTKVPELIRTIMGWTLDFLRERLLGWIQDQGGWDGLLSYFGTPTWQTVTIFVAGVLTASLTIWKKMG
UniProt O43521, whole entry: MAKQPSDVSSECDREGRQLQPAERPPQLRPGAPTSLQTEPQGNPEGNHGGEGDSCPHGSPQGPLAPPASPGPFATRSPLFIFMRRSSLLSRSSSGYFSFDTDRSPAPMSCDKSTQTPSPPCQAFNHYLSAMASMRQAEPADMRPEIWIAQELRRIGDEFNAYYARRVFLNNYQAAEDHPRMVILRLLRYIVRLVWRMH

Columns and labels:
[1] = target: Bcl-XL (Homo sapiens) (UniProt Q07817)
[2] = target: Bax (Homo sapiens) (UniProt Q07812)

In the case of Bim (from UniProt O43521), the Kd [1] is given as 3 nM and the Kd [2] is given as 60 nM.
